Usually T/C stands for the result in the treated group divided by that in the control group, in per cent.

Results on one molecule are retold here after ChEMBL document CHEMBL1124441, “Synthesis of congeners and prodrugs. 3. Water-soluble prodrugs of taxol with potent antitumor activity” (1989).

Common to all, as to conditions: Mus musculus
For experiment [1], the system named is B16. The experiment in a line: Difference in body weight in grams between test and control animals at a dose of 54 mg/kg intraperitoneally.
Experiment [2] deals with B16. Kind of experiment: Difference in body weight in grams between test and control animals at a dose of 27 mg/kg intraperitoneally.
In experiment [3] the test system is B16. The experiment in a line: Difference in body weight in grams between test and control animals at a dose of 13.5 mg/kg intraperitoneally.
For experiment [4], the system named is B16. Kind of experiment: Difference in body weight in grams between test and control animals at a dose of 6.75 mg/kg intraperitoneally.
For experiment [5], the system named is B16. Kind of experiment: Antitumor activity in B16 Melanoma system animals is indicated by survivors on day 4 at a dose of 27 mg/kg intraperitoneally.
In experiment [6] the test system is B16. Kind of experiment: Antitumor activity in B16 Melanoma system animals is indicated by survivors on day 4 at a dose of 54 mg/kg intraperitoneally.
Experiment [7] deals with B16. The experiment in a line: Antitumor activity in B16 Melanoma system animals is indicated by survivors on day 4 at a dose of 13.5 mg/kg intraperitoneally.
The subject of experiment [8] is B16. Kind of experiment: Antitumor activity in B16 Melanoma system animals is indicated by survivors on day 4 at a dose of 6.75 mg/kg intraperitoneally.
Experiment [9] has as its system B16. The experiment in a line: Percent of median lifetime of test animals divided by the median lifetime of control animals at a dose of 27 mg/kg intraperitoneally.
Experiment [10] has as its system B16. Kind of experiment: Percent of median lifetime of test animals divided by the median lifetime of control animals at a dose of 6.75 mg/kg intraperitoneally.
Experiment [11] has as its system B16. The experiment in a line: Percent of median lifetime of test animals divided by the median lifetime of control animals at a dose of 13.5 mg/kg intraperitoneally.
Experiment [12] relates to B16. The experiment in a line: Percent of median lifetime of test animals divided by the median lifetime of control animals at a dose of 54 mg/kg intraperitoneally; toxic.

Consider `CC(=O)OC1C(=O)[C@@]2(C)[C@H]([C@H](OC(=O)c3ccccc3)[C@]3(O)CC(OC(=O)C(OC(=O)CCC(=O)O)C(NC(=O)c4ccccc4)c4ccccc4)C(C)=C1C3(C)C)[C@]1(OC(C)=O)CO[C@@H]1C[C@@H]2O` (some centres not stated), for which the Weight difference in [1] was -0.4 g; in experiment [2], -0.8 g; in experiment [3], 0.6 g; in [4] it was 0 g. The Activity in experiment [5], in experiment [6], in experiment [7] and in experiment [8] was 10 each time. The T/C was 314% in experiment [9], 230% in [10], 264% in experiment [11] and “Toxic” in experiment [12].
